{"source": "patent US5041542A", "about": "“Substituted pyrimido[5,4-d]pyrimidine nucleosides” (Nucleic Acid Research Institute, priority 1988, dated 1991)", "test_system": "adenosine deaminase", "settings": "1 μM, prior addition"}
{"smiles": "OC[C@H]1O[C@@H](n2cnc3c2N=CNC[C@H]3O)[C@H](O)[C@@H]1O", "note": "[coformycin]", "values": [{"measurement": "prevention of the deamination of ARPP", "value": "completely prevented the deamination of ARPP"}]}
